The text below walks through data of BindingDB's records for doi:10.1021/jm00008a008 (Arris Pharmaceutical, 1995).

The nature of this assay: Tested for activity against 5-hydroxytryptamine 1A receptor from bovine hippocampus.

Regarding `CCCN1CC[C@H]2c3c(O)cccc3CC[C@@H]21` [(3aS,9bS)-3-Propyl-2,3,3a,4,5,9b-hexahydro-1H-benzo[e]indol-9-ol], the Ki (commonly a measure of affinity in units of concentration, obtained from inhibition or displacement) is 0.1 nM.
